Values quoted from earlier work as cited in patent US12100485B2, “Machine learning and molecular simulation based methods for enhancing binding and activity prediction” (The Board of Trustees of the Leland Stanford Junior …, priority 2018, dated 2024).

System: μOR
Details: known pharmacology, training dataset

In the case of CN(C)[C@]1(c2ccccc2)CC[C@]2(CC1)OCCc1c3cc(F)ccc3[nH]c12, the Action is given as “agonist”.
